Chains of the proteins cited; added tags and fusions are not shown. Residues count along the entry.
UniProt O00408, 2-941: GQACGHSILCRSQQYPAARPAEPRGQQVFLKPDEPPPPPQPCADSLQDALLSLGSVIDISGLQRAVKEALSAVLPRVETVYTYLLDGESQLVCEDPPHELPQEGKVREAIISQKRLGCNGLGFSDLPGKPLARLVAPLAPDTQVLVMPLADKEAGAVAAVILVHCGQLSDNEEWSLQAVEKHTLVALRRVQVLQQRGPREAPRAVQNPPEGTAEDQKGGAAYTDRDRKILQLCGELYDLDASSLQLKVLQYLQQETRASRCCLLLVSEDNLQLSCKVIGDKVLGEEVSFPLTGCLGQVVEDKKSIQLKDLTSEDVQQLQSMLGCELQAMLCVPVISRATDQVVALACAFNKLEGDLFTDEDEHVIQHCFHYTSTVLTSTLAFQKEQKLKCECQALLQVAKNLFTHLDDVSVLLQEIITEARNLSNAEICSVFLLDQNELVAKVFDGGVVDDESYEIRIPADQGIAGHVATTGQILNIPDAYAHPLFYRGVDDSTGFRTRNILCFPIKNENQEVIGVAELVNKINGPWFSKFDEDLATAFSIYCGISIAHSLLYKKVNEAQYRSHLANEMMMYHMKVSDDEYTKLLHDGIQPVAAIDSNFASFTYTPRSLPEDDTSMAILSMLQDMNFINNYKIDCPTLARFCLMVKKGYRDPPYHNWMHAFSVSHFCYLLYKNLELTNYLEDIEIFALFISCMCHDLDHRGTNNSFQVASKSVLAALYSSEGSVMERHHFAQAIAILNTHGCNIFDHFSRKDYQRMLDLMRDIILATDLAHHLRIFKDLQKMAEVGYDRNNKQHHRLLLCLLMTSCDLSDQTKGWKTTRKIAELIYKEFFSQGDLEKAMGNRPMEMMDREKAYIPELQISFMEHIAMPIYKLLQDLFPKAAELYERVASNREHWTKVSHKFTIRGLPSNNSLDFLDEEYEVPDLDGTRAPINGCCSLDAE

Each compound was assayed against FLAG-tagged PDE2A1 (amino acids 2-941) (Homo sapiens (Human), UniProt O00408) (assay: IMAP TR-FRET PDE2A phosphodiesterase enzymatic assay). Details: not given.
In the case of `Cc1cc(C2CN(C(=O)c3ccccc3)CCO2)n2ncnc2n1` (centres unmarked) [Example 213, 4-Benzoyl-2-{5-methyl-[1,2,4]triazolo[1,5-a]pyrimidin-7-yl}morpholine], the IC50 is reported as 1000 to 10000 nM.
`Cc1cc(C2CCCN(C(=O)c3nc4ccccc4s3)C2)n2ncnc2n1` (centres unmarked) [Example 459, 2-[(3-{5-Methyl-[1,2,4]triazolo[1,5-a]pyrimidin-7-yl}piperidin-1-yl)carbonyl]-1,3-benzothiazole] showed an IC50 of 100 to 1000 nM.
`Cc1cc(C2CCCN(Cc3ccc(C)c(C)c3)C2)n2ncnc2n1` (centres unmarked) [Example 93, 1-[(3,4-Dimethylphenyl)methyl]-3-{5-methyl-[1,2,4]triazolo[1,5-a]pyrimidin-7-yl}piperidine] showed an IC50 of 100 to 1000 nM.
For `COc1ccccc1CN1CCCC(c2cc(C)nc3ncnn23)C1` (centres unmarked) [Example 70, 1-[(2-Methoxyphenyl)methyl]-3-{5-methyl-[1,2,4]triazolo[1,5-a]pyrimidin-7-yl}piperidine], the IC50 was greater than 10000 nM.
Work on `Cc1cc(C2CCCN(Cc3c(F)cc(-c4cccnc4)cc3F)C2)n2ncnc2n1` (centres unmarked) [Example 37, 7-(1-(2,6-Difluoro-4-(pyridin-3-yl)benzyl)piperidin-3-yl)-5-methyl-[1,2,4]triazolo[1,5-a]pyrimidine] yielded an IC50 of 1000 to 10000 nM.
Compound `Cc1cc(C2CCCN(Cc3ccc(Cl)cc3F)C2)n2ncnc2n1` (centres unmarked) [Example 118, 1-[(4-Chloro-2-fluorophenyl)methyl]-3-{5-methyl-[1,2,4]triazolo[1,5-a]pyrimidin-7-yl}piperidine] has an IC50 of 1000 to 10000 nM.
In the case of `Cc1cc(C2CCCN(Cc3cc(C)c(Br)cn3)C2)n2ncnc2n1` (centres unmarked) [Example 136, 5-Bromo-4-methyl-2-[(3-{5-methyl-[1,2,4]triazolo[1,5-a]pyrimidin-7-yl}piperidin-1-yl)methyl]pyridine], the IC50 is reported as 100 to 1000 nM.
`Cc1cc(C2CCCN(Cc3ccc(OC(C)C)cc3)C2)n2ncnc2n1` (centres unmarked) [Example 80, 3-{5-Methyl-[1,2,4]triazolo[1,5-a]pyrimidin-7-yl}-1-{[4-(propan-2-yloxy)phenyl]methyl}piperidine] showed an IC50 greater than 10000 nM.
`Cc1cc(C2CCCN(C(=O)c3cc(C4CC4)no3)C2)n2ncnc2n1` (centres unmarked) [Example 425, 1-[(3-Cyclopropyl-1,2-oxazol-5-yl)carbonyl]-3-{5-methyl-[1,2,4]triazolo[1,5-a]pyrimidin-7-yl}piperidine] showed an IC50 of 100 to 1000 nM.
Compound `Cc1cc(C2CN(C(=O)c3cccc(C#N)c3)CC(F)(F)C2)n2ncnc2n1` (centres unmarked) [Example 236, 3-[(3,3-Difluoro-5-{5-methyl-[1,2,4]triazolo[1,5-a]pyrimidin-7-yl}piperidin-1-yl)carbonyl]benzonitrile] has an IC50 of 100 to 1000 nM.
Work on `Cc1cc(C2CCCN(Cc3ccc4c(c3)OC(F)(F)O4)C2)n2ncnc2n1` (centres unmarked) [Example 121, 1-[(2,2-Difluoro-2H-1,3-benzodioxol-5-yl)methyl]-3-{5-methyl-[1,2,4]triazolo[1,5-a]pyrimidin-7-yl}piperidine] yielded an IC50 greater than 10000 nM.
In the case of `Cc1cc(C2CN(C(=O)c3ccc(-c4ccccc4)cc3)CCO2)n2ncnc2n1` (centres unmarked) [Example 218, 2-{5-Methyl-[1,2,4]triazolo[1,5-a]pyrimidin-7-yl}-4-[(4-phenylphenyl)carbonyl]morpholine], the IC50 is reported as 100 to 1000 nM.
For `Cc1cc(C2CCCN(Cc3cnc(N4CCCC4)s3)C2)n2ncnc2n1` (centres unmarked) [Example 202, 3-{5-Methyl-[1,2,4]triazolo[1,5-a]pyrimidin-7-yl}-1-{[2-(pyrrolidin-1-yl)-1,3-thiazol-5-yl]methyl}piperidine], the IC50 was 100 to 1000 nM.
In the case of `COc1ccccc1C(=O)N1CCCC(c2cc(C)nc3ncnn23)C1` (centres unmarked) [Example 455, 1-[(2-Methoxyphenyl)carbonyl]-3-{5-methyl-[1,2,4]triazolo[1,5-a]pyrimidin-7-yl}piperidine], the IC50 is reported as 100 to 1000 nM.
Compound `Cc1cc(C2CCCN(Cc3ccc(C(C)C)cc3)C2)n2ncnc2n1` (centres unmarked) [Example 84, 3-{5-Methyl-[1,2,4]triazolo[1,5-a]pyrimidin-7-yl}-1-{[4-(propan-2-yl)phenyl]methyl}piperidine] has an IC50 greater than 10000 nM.
With `Cc1cc([C@@H]2CN(C(=O)c3ccc(C4CC4)c(F)c3F)CCO2)n2ncnc2n1` [Example 325, (2S)-4-(4-Cyclopropyl-2,3-difluorobenzoyl)-2-{5-methyl-[1,2,4]triazolo[1,5-a]pyrimidin-7-yl}morpholine] the IC50 was 100 to 1000 nM.
Compound `Cc1cc(C2CCCN(Cc3cccnc3)C2)n2ncnc2n1` (centres unmarked) [Example 48, 3-[(3-{5-Methyl-[1,2,4]triazolo[1,5-a]pyrimidin-7-yl}piperidin-1-yl)methyl]pyridine] has an IC50 greater than 10000 nM.
`Cc1cc(C2CCCN(C(=O)c3cccc(C)c3F)C2)n2ncnc2n1` (centres unmarked) [Example 412, 1-[(2-Fluoro-3-methylphenyl)carbonyl]-3-{5-methyl-[1,2,4]triazolo[1,5-a]pyrimidin-7-yl}piperidine] gave an IC50 of 100 to 1000 nM.
Compound `COc1cccc(F)c1C(=O)N1CCCC(c2cc(C)nc3ncnn23)C1` (centres unmarked) [Example 496, 1-[(2-Fluoro-6-methoxyphenyl)carbonyl]-3-{5-methyl-[1,2,4]triazolo[1,5-a]pyrimidin-7-yl}piperidine] has an IC50 of 1000 to 10000 nM.
In the case of `Cc1cc(C2CCCN(Cc3ccc(Cl)cc3Cl)C2)n2ncnc2n1` (centres unmarked) [Example 55, 1-[(2,4-Dichlorophenyl)methyl]-3-{5-methyl-[1,2,4]triazolo[1,5-a]pyrimidin-7-yl}piperidine], the IC50 is reported as greater than 10000 nM.
With `Cc1cc(C2CCCN(Cc3c(F)cc(-c4cccc(Cl)c4)cc3F)C2)n2ncnc2n1` (centres unmarked) [Example 14, 1-{[4-(3-Chlorophenyl)-2,6-difluorophenyl]methyl}-3-{5-methyl-[1,2,4]triazolo[1,5-a]pyrimidin-7-yl}piperidine] the IC50 was 100 to 1000 nM.
In the case of `Cc1cc([C@@H]2CCCN(Cc3ccc(Cl)c(F)c3)C2)n2ncnc2n1` [Example 140, (3R)-1-[(4-Chloro-3-fluorophenyl)methyl]-3-{5-methyl-[1,2,4]triazolo[1,5-a]pyrimidin-7-yl}piperidine], the IC50 is reported as 100 to 1000 nM.
`Cc1cc(C2CCCN(Cc3cc(F)cc(F)c3)C2)n2ncnc2n1` (centres unmarked) [Example 185, 1-[(3,5-Difluorophenyl)methyl]-3-{5-methyl-[1,2,4]triazolo[1,5-a]pyrimidin-7-yl}piperidine] gave an IC50 of 100 to 1000 nM.
`Cc1cc(C2CCCN(Cc3cc(-c4cccc(Cl)c4)ccc3F)C2)n2ncnc2n1` (centres unmarked) [Example 34, 1-{[5-(3-Chlorophenyl)-2-fluorophenyl]methyl}-3-{5-methyl-[1,2,4]triazolo[1,5-a]pyrimidin-7-yl}piperidine] gave an IC50 of 100 to 1000 nM.
Compound `Cc1cc([C@H]2CN(C(=O)c3cc(Cl)cc(Cl)c3)CCO2)n2ncnc2n1` [Example 255, (2R)-4-[(3,5-Dichlorophenyl)carbonyl]-2-{5-methyl-[1,2,4]triazolo[1,5-a]pyrimidin-7-yl}morpholine] has an IC50 greater than 10000 nM.

Same assay, conditions: IMAP TR-FRET, 200 nM FAM-cAMP substrate, 11-point half-log dose-response
With `Cc1cc([C@@H]2CN(C(=O)c3ccc(C4CC4)cc3)CC(F)(F)C2)n2ncnc2n1` [Example 302, (5S)-1-(4-Cyclopropylbenzoyl)-3,3-difluoro-5-{5-methyl-[1,2,4]triazolo[1,5-a]pyrimidin-7-yl}piperidine] the “PDE2 (pIC50)” value was greater than 7.
With `Cc1cc(C2CCCN(C(=O)c3cccc(Cl)c3)C2)n2ncnc2n1` (centres unmarked) [Example 414, 1-[(3-Chlorophenyl)carbonyl]-3-{5-methyl-[1,2,4]triazolo[1,5-a]pyrimidin-7-yl}piperidine] the “PDE2 (pIC50)” value was greater than 7.
`Cc1cc(C2CN(C(=O)c3cccc(I)c3)CC(F)(F)C2)n2ncnc2n1` (centres unmarked) [Example 211, 3,3-Difluoro-1-[(3-iodophenyl)carbonyl]-5-{5-methyl-[1,2,4]triazolo[1,5-a]pyrimidin-7-yl}piperidine] was tested, and the “PDE2 (pIC50)” value was greater than 7.
In the case of `Cc1cc(C2CN(C(=O)c3cc4ccccc4cn3)CCO2)n2ncnc2n1` (centres unmarked) [Example 293, 3-[(2-{5-Methyl-[1,2,4]triazolo[1,5-a]pyrimidin-7-yl}morpholin-4-yl)carbonyl]isoquinoline], the “PDE2 (pIC50)” value is reported as greater than 7.
For `Cc1cc(C2CN(C(=O)c3ccc(C(C)C)cc3)CC(F)(F)C2)n2ncnc2n1` (centres unmarked) [Example 521, 3,3-Difluoro-5-{5-methyl-[1,2,4]triazolo[1,5-a]pyrimidin-7-yl}-1-[4-(propan-2-yl)benzoyl]piperidine], the “PDE2 (pIC50)” value was greater than 7.
In the case of `COc1c(F)cc(C(=O)N2C[C@@H](c3cc(C)nc4ncnn34)CC(F)(F)C2)cc1Cl` [Example 308, (5S)-1-(3-Chloro-5-fluoro-4-methoxybenzoyl)-3,3-difluoro-5-{5-methyl-[1,2,4]triazolo[1,5-a]pyrimidin-7-yl}piperidine], the “PDE2 (pIC50)” value is reported as greater than 7.
`Cc1cc(C)cc(C(=O)N2C[C@@H](c3cc(C)nc4ncnn34)CC(F)(F)C2)c1` [Example 277, (5S)-1-(3,5-Dimethylbenzoyl)-3,3-difluoro-5-{5-methyl-[1,2,4]triazolo[1,5-a]pyrimidin-7-yl}piperidine] was tested, and the “PDE2 (pIC50)” value was greater than 7.
`Cc1cc([C@@H]2CN(C(=O)c3cc(Cl)cc(Br)c3)CCO2)n2ncnc2n1` [Example 278, (2S)-4-(3-Bromo-5-chlorobenzoyl)-2-{5-methyl-[1,2,4]triazolo[1,5-a]pyrimidin-7-yl}morpholine] was tested, and the “PDE2 (pIC50)” value was greater than 7.
For `Cc1cc(C2CN(C(=O)c3ccc4ncccc4c3)CCO2)n2ncnc2n1` (centres unmarked) [Example 295, 6-[(2-{5-Methyl-[1,2,4]triazolo[1,5-a]pyrimidin-7-yl}morpholin-4-yl)carbonyl]quinoline], the “PDE2 (pIC50)” value was greater than 7.
With `Cc1cc(C2CN(C(=O)c3ccc4c(c3)OCCO4)CC(F)(F)C2)n2ncnc2n1` (centres unmarked) [Example 519, 1-(2,3-Dihydro-1,4-benzodioxine-6-carbonyl)-3,3-difluoro-5-{5-methyl-[1,2,4]triazolo[1,5-a]pyrimidin-7-yl}piperidine] the “PDE2 (pIC50)” value was greater than 7.
`Cc1cc(C2CCCN(C(=O)c3ccc4ncsc4c3)C2)n2ncnc2n1` (centres unmarked) [Example 421, 6-[(3-{5-Methyl-[1,2,4]triazolo[1,5-a]pyrimidin-7-yl}piperidin-1-yl)carbonyl]-1,3-benzothiazole] was tested, and the “PDE2 (pIC50)” value was greater than 7.
In the case of `Cc1cc(C2CN(C(=O)c3ccc4sccc4c3)CC(F)(F)C2)n2ncnc2n1` (centres unmarked) [Example 503, 1-(1-Benzothiophene-5-carbonyl)-3,3-difluoro-5-{5-methyl-[1,2,4]triazolo[1,5-a]pyrimidin-7-yl}piperidine], the “PDE2 (pIC50)” value is reported as greater than 7.
With `COc1cc2ccccc2cc1C(=O)N1CC(c2cc(C)nc3ncnn23)CC(F)(F)C1` (centres unmarked) [Example 520, 3,3-Difluoro-1-(3-methoxynaphthalene-2-carbonyl)-5-{5-methyl-[1,2,4]triazolo[1,5-a]pyrimidin-7-yl}piperidine] the “PDE2 (pIC50)” value was greater than 7.

— patent US11186582B2, “Substituted [1,2,4]triazolo[1,5-a]pyrimidin-7-yl compounds as PDE2 inhibitors” (DART NEUROSCIENCE (CAYMAN) LTD., priority 2014, dated 2021)
